For assay [1], the target named is T1, Beta-2 adrenergic receptor (Cavia porcellus, UniProt Q8K4Z4). Nature of the assay: Agonist activity at adrenergic beta2 receptor in Hartley guinea pig tracheal ring at basal tone assessed as bronchorelaxation activity.
Assay [2] deals with T1, Beta-2 adrenergic receptor. Description: Agonist activity at adrenergic beta2 receptor in Hartley guinea pig tracheal ring assessed as bronchorelaxation activity against histamine-induced contraction. The arrangement: species or system Trachea.

Sequences of proteins named here, by UniProt entry; tags and fusion partners are left off.
UniProt Q8K4Z4, whole entry: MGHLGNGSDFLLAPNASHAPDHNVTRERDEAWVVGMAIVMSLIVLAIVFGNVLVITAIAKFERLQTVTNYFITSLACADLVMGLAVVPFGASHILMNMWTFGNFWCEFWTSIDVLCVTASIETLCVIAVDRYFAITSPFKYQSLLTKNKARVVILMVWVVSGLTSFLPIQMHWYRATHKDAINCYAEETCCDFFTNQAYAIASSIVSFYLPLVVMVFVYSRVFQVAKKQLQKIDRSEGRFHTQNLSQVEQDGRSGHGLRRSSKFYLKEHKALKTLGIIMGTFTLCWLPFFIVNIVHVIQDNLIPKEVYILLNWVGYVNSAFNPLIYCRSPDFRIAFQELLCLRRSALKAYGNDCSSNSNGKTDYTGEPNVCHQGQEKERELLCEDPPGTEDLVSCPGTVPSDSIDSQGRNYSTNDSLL

Broadly, the Kd is the concentration at which binding is half-saturated. Regarding `CC(C)(C)NCC(O)c1ccc(O)c(CO)c1` (configuration not stated) [ALBUTEROL], the figures for the Kd in assay [1] and in assay [2] were 110 nM and 245 nM, respectively.

These data come from ChEMBL document CHEMBL3393004, “Insights on the role of boron containing moieties in the design of new potent and efficient agonists targeting the β2 adrenoceptor” (Bioorg Med Chem Lett, 2015).
